Measured affinities in a library of Ab-95 light chain variants

Source: Engelhart et al. 2022 (doi:10.1038/s41597-022-01779-4), MIT Lincoln Laboratory and A-Alpha Bio; data file from the FLAb repository.

Target peptide (SARS-CoV-2 spike, HR2 region): PDVDLGDISGINAS

Ab-95 is the parent antibody, in scFv form: VH, then three GGGGS repeats, then VL. The heavy chain is unchanged in all variants.
VH: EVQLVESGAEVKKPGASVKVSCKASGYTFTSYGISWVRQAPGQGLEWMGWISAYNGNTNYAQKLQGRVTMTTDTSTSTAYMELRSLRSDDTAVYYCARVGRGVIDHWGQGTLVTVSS
VL: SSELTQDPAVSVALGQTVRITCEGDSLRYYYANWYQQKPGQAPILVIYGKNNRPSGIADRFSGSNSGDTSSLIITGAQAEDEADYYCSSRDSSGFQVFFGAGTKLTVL

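In library AAYL52, one, two or three CDR residues were substituted; doubles and triples were drawn at random. The scFvs were displayed on barcoded MATa yeast, the peptide on MATalpha yeast. After mating in shaken culture at 30 °C for 16 h, diploids were selected and their barcode pairs sequenced. The ratio of observed to expected reads was calibrated, replicate by replicate, on BCL2-family standards whose Kd was known from biolayer interferometry. The assay was run in three technical replicates.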

Each variant is given by its three light chain CDRs, as the data file delimits them; those of the parent are EGDSLRYYYAN, GKNNRPS, SSRDSSGFQVF. All variants listed here change Y29 of the VL, counted from its first residue. The read-out is the apparent dissociation constant on a log10 scale (nM): the lower, the stronger. An entry "ND" has no value in the source: the pair was not observed among the diploids in that replicate. This suggests poor binding but is not conclusive.

* EGDRLRNYYAN, GKNNRPS, SSRDSSGFQVF: 3.72, 4.21, 3.00 (controls 3 of 9)
* EGDSLRGYYAN, GKNIRPS, SSRSSSGFQVF: 1.23, 1.26, 0.78 (controls 7 of 9)
* EGDSLRIMYAN, GKNNRPS, SSRDSSGFQVF: 2.38, 2.26, 2.55 (controls 3 of 9)
* EGDSLREYAAN, GKNNRPS, SSRDSSGFQVF: 1.20, 1.02, 0.80 (controls 2 of 9)
* EGCSCRLYYAN, GKNNRPS, SSRDSSGFQVF: 3.67, 4.25, 3.75 (controls 4 of 9)
* EGDSLRFYYAN, GKFNRPS, SSRDSSGFRVF: ND, 5.24, ND (controls 0 of 9)
* EGDSLRKYYAN, GKNNRMS, SSRDSSGFQVF: 2.53, 2.35, 2.12 (controls 4 of 9)
* EGDSLRWYYAN, GKNNRPS, SRRDSPGFQVF: 5.94, ND, 3.41 (controls 6 of 9)
* EPDSLRLYPAN, GKNNRPS, SSRDSSGFQVF: 2.63, 2.85, ND (controls 4 of 9)
* EGDALRSYYLN, GKNNRPS, SSRDSSGFQVF: 3.35, ND, ND (controls 5 of 9)
* EGDSLRMCYAL, GKNNRPS, SSRDSSGFQVF: 2.41, 2.85, 2.21 (controls 1 of 9)
* EGDSLRRYYAN, GKNNAPS, SSRLSSGFQVF: 3.35, ND, ND (controls 5 of 9)
* EGDSLRPYYAN, GKNRRPS, SSRDSSGFQWF: ND, ND, 3.95 (controls 1 of 9)
* EIDSLRCYYAN, EKNNRPS, SSRDSSGFQVF: ND, 4.55, ND (controls 3 of 9)
* EGDSLRWYYIN, GKNNRPS, SSLDSSGFQVF: 3.55, 5.45, 2.76 (controls 2 of 9)
* EGDSFRNYYAN, GKNNRPS, SSRDSSGFQYF: 3.34, 3.32, 4.04 (controls 5 of 9)
* EGDSLRLYYAN, SKNNRPE, SSRDSSGFQVF: 5.05, 2.84, ND (controls 3 of 9)
* EGDSLRNYYAN, GKNNRYS, SSRDSSGRQVF: 2.55, 3.20, 2.22 (controls 3 of 9)
* EGDSGRTQYAN, GKNNRPS, SSRDSSGFQVF: 2.33, 2.39, 2.20 (controls 0 of 9)
* TGDSLRAYYAV, GKNNRPS, SSRDSSGFQVF: 5.24, 3.39, ND (controls 4 of 9)
* EGDSLRQYPAN, GKNNRPV, SSRDSSGFQVF: 1.15, 0.97, 0.56 (controls 3 of 9)
* EGDSLRLYYAN, GKNNRPS, SSRDCSGFQVM: 4.60, 5.35, 4.50 (controls 3 of 9)
* EGDPLSDYYAN, GKNNRPS, SSRDSSGFQVF: 2.62, 2.53, 2.22 (controls 3 of 9)
* EGDSLRSYTAN, GKNNRPS, SSRDSSGFQVF: 2.62, 1.69, 2.29 (controls 4 of 9)
* EGDSLRGYYAD, GKNNQPS, SSRDSSGFQVF: 3.02, ND, 4.44 (controls 3 of 9)
* EGDSLRLYYAN, GKNNDIS, SSRDSSGFQVF: ND, 4.99, ND (controls 1 of 9)
* EGDSLRDYYAN, GALNRPS, SSRDSSGFQVF: 2.69, 2.41, 2.49 (controls 3 of 9)
* EGDSLREYHAN, GKNNRPS, NSRDSSGFQVF: 1.92, 1.91, 1.41 (controls 5 of 9)
* EGDSLEKYYAN, GKNNRPS, SSRDESGFQVF: 2.17, 1.93, 2.08 (controls 3 of 9)
* KGDSLRIYYAN, GKNNRGS, SSRDSSGFQVF: 2.72, 3.32, 3.24 (controls 6 of 9)
* EGDSLREYYAN, SKNNRPG, SSRDSSGFQVF: 3.18, 5.54, ND (controls 0 of 9)
* EGDSLRKYYAG, GKNNRPS, SSRDSSGIQVF: 3.20, 2.91, 2.83 (controls 4 of 9)
* EKDSLRPYYAN, GKNNRPS, SSRDSSGFQVF: ND, 4.38, ND (controls 1 of 9)
* EGDSLDRYYAN, GKNNRPS, SSRDLSGFQVF: 2.81, 2.80, 2.52 (controls 2 of 9)
* EGDALRPYYAN, GKNNRPS, SNRDSSGFQVF: 3.10, 2.67, 2.32 (controls 5 of 9)
* EGDSLRLYYAN, GCNNRPS, SSRDSSGFQVF: ND, ND, ND (controls 0 of 9)
* EGDSLRNYYAN, GKNNRMS, SSRDSSGFQVH: 2.79, 2.30, 2.35 (controls 2 of 9)

The 6 strongest on average among those seen in every replicate, once more:

CDR-L1	CDR-L2	CDR-L3	log10 Kd (nM) by replicate	empty controls
EGDSLRQYPAN	GKNNRPV	SSRDSSGFQVF	1.15, 0.97, 0.56	3/9
EGDSLREYAAN	GKNNRPS	SSRDSSGFQVF	1.20, 1.02, 0.80	2/9
EGDSLRGYYAN	GKNIRPS	SSRSSSGFQVF	1.23, 1.26, 0.78	7/9
EGDSLREYHAN	GKNNRPS	NSRDSSGFQVF	1.92, 1.91, 1.41	5/9
EGDSLEKYYAN	GKNNRPS	SSRDESGFQVF	2.17, 1.93, 2.08	3/9
EGDSLRSYTAN	GKNNRPS	SSRDSSGFQVF	2.62, 1.69, 2.29	4/9

Background: pairings of library AAYL52 with three empty control strains gave a value in 28% of cases (median 3.91, 5th percentile 2.90). Values in that range, when seen in few replicates, are hard to tell from nonspecific mating. Also given: how often the same scFv was detected with the empty control strains.